# According to PubChem BioAssay AID504375 (National Center for Advancing Translational Sciences (NCATS), 2011):
# Sequences of proteins named here, by UniProt entry; tags and fusion partners are left off.
# UniProt Q01196, whole entry, looked up: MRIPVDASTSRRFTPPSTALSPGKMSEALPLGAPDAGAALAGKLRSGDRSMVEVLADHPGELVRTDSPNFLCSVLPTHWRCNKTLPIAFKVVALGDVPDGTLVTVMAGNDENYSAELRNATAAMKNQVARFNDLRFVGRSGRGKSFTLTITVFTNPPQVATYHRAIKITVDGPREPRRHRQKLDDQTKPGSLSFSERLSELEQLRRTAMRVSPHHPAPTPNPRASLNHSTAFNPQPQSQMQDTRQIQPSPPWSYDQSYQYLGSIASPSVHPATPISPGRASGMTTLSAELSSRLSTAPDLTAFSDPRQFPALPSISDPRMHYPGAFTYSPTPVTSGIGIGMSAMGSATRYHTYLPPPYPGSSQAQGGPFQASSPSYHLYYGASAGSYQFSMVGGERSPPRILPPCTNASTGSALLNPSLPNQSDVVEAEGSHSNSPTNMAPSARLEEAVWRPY
# UniProt Q13951, whole entry, looked up: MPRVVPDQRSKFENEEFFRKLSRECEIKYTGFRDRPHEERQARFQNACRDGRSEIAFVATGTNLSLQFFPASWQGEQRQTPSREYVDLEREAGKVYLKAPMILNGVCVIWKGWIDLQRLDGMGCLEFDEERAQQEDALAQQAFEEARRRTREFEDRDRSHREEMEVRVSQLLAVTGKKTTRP
# This is a selection; strong and weak results do not stand in their true shares. Results filed as inconclusive are left out. Active and inactive are the calls of the source. The call rests on the fitted dose curve; in most records, active means well fitted inhibition curve with a large enough effect; inconclusive means small, poorly fitted or top-dose-only effect, or effect the other way; inactive means no such curve, though single readings can be large or run the other way.
# Biological target: Runt-related transcription factor 1 (Homo sapiens) + Core-binding factor subunit beta (Homo sapiens) (UniProt Q01196+Q13951)
# Assay: qHTS Assay for Compounds Blocking the Interaction Between CBF-beta and RUNX1 for the Treatment of Acute Myeloid Leukemia: Hit Validation with Orthogonal Assay
# Conditions: CBFbeta-RUNX1 binding orthogonal assay, biochemical; at 41 µM (top of the series)
# On the % scale 0 is the no-effect control and ±100 the full control effect.
row,Compound,"activity change, negative = inhibition"
1,N#CC1(Nc2ccccc2)CCN(Cc2ccccc2)CC1,inactive: -7.03%
